# Antibody variant affinities, Ab-14 heavy chain, assay B

The measurements come from Li et al. 2023 (doi:10.1038/s41467-023-39022-2) through the FLAb antibody collection.

Target: peptide PDVDLGDISGINAS, taken from heptad repeat 2 (HR2) of SARS-CoV-2 spike.

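Phage display of a naive human antibody library on the peptide gave the parent. The variants were designed computationally from a first round of random CDR variants and then made and measured. Group labels follow the data file (Ctrl: baseline library sampled from a position-specific scoring matrix, with some repeated check sequences; Rand: our label for a block that the file lists under HC and that is probably the random mutants of the ten best first-round binders; En: ensemble of fine-tuned language models; GP: Gaussian process model; GPLM: also part of the Gaussian process libraries; HC: hill climbing; Gen: genetic algorithm; Gibbs: Gibbs sampling; a sequence that several methods proposed may carry one label only). AlphaSeq pools MATa yeast showing the antibodies with MATalpha yeast showing the peptide. Mating (16 h, 30 °C) was followed by selection of diploids and sequencing of their barcodes. A regression on co-assayed BCL2-family reference pairs converts the normalised counts of each replicate to an apparent Kd. The assay was run in six technical replicates.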

Parent scFv Ab-14: VH joined to VL by the linker GGGGSGGGGSGGGGS. Changes lie in the heavy chain CDRs alone.
VH: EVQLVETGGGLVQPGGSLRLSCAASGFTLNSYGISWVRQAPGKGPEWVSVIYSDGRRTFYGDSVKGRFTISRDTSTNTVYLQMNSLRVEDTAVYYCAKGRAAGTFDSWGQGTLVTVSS
VL: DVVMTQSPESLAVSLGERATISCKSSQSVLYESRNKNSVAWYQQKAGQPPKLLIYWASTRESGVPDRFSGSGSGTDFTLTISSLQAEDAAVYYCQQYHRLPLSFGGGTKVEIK

The parent's heavy chain CDRs are GFTLNSYGIS, VIYSDGRRTFYGDSVK, GRAAGTFDS; each variant's own CDRs replace them letter for letter.
Values are log10 of the apparent Kd in nM; lower means stronger binding.
An entry "ND" has no value in the source: the pair was not observed among the diploids in that replicate. This suggests poor binding but is not conclusive.
The authors' rule: three or more of the six replicates give a measured affinity, fewer mean a poor binder.

CDR-H1	CDR-H2	CDR-H3	group	log10 Kd (nM) by replicate
GFTLNSYGIS	VIYSDGRRTFYKDSVK	GRQAGTFDS	Ctrl	1.11 / 2.34 / 4.11 / 5.09 / ND / 2.81
GFALNEYGIS	VIYADGFRKAYINSVK	GVNNMDVNV	En_Gibbs	0.36 / 0.11 / 0.46 / 0.76 / 0.10 / 0.25
GFTLNSYGIS	VIYSDGRRTFYGDSVK	GRAAGRDDS	Ctrl	ND / ND / ND / ND / ND / ND
GNTLNEYGIS	VIYSDGRRTFYGDSVK	GRMAGTFDS	GP_HC	0.97 / 1.21 / 1.29 / 0.99 / 0.90 / 1.91
GFSLNEYGIS	VIYSDGRRTFYGDSVK	GRNAGTFDS	GPLM_Gen	-0.05 / -0.33 / -0.01 / -0.52 / -0.09 / -0.25
GFTLNSYGIS	VIYSDGRRTFYKDSVK	GLLAGTFDS	GP_HC	1.29 / 1.06 / 2.74 / 2.66 / 2.69 / 1.78
GFELNSYGIS	VIYSDGRRTFYGDSVK	GSAAGTFDL	GP_Gibbs	ND / 1.77 / 2.56 / 1.76 / 1.21 / 2.59
LFTLESYGIS	VIYADGRRTFYGDSVK	GRAAGTFDS	GP_HC	1.38 / 1.33 / 1.28 / 3.46 / 1.62 / 0.40
GFDLNEYGIS	VIYADGRRTFYADSVK	GETAGTFNS	En_HC	-0.04 / -0.31 / -0.19 / -0.72 / -0.18 / -0.33
DFSLNSYGIS	VIYSDGRRTAYGDSVK	GRAAGTFDS	GP_Gen	0.73 / 0.69 / 0.98 / 0.29 / 0.71 / 0.42
GFDLNSYGIS	VIYSDGRRTFYGDSVK	GMAAGWFNS	Rand	ND / ND / ND / ND / ND / ND
GFDLEDYGIS	VIYADGMRTAYTDSVK	GNVAGTFDI	En_Gen	0.04 / -0.03 / -0.24 / -0.41 / -0.23 / 0.21
GFTLNSYGIS	VIYSDGVRTFYGDSVK	GRVAGTFDL	GPLM_Gibbs	ND / 2.16 / 1.99 / 1.15 / 1.58 / 1.95
GFDLNEYGIS	VIYADGVRTSYADDVK	GNVAGTFDI	En_Gen	-0.23 / 0.03 / -0.36 / -0.70 / 0.19 / -0.13
GFDLDEYGIS	VIYADGMRTVYADSVK	GNTAGTFDI	En_Gen	-0.68 / -0.72 / -0.55 / -0.64 / -0.38 / -0.52
GFTLNSYGIS	VIYSDGRRTFYGDSYK	GRWAGTFDS	Ctrl	ND / ND / ND / ND / ND / ND
GFDLNEYGIS	VIYADGQRTAYADSVK	GKVAGTFDS	En_HC	-0.61 / -0.97 / -0.76 / -0.47 / -0.57 / -1.20
GFGLMDYGIS	VIYADGMRRSYANSVK	GKHAGFFDF	En_Gibbs	ND / ND / ND / 2.45 / ND / ND
GFSLDEYGIS	VIYADGRRTFYQDDVK	GNVAGTFDQ	En_HC	-0.75 / -0.74 / -0.35 / -0.64 / -1.03 / -0.59
GFTLNSYGIS	VIYSDGRRTFYGDSVK	GQEAGTGDS	Ctrl	ND / ND / ND / ND / ND / ND
GFDLNEYGIS	VIYADGRRTAYADSVK	GQVAGTFDM	En_HC	-0.83 / -1.03 / -1.28 / -0.72 / -0.22 / -1.08
GTTLNSYGIS	VIYSDGRRTFYGDSVK	GAVAGTFDS	Ctrl	1.28 / 0.75 / 0.93 / 1.24 / 0.96 / 1.53
GFTLNSYGIS	VIYADGRRTFYGDSVK	GHAAGTFDK	GP_Gen	0.19 / -0.09 / 0.24 / -0.04 / 0.37 / 0.83
GFTLNSYGIS	VIYSDGRRTFYIDSVK	GRMAGTFDS	GP_HC	1.29 / 4.25 / ND / ND / 3.68 / 2.55

The remaining entries, values ahead:

log10 Kd (nM) by replicate	CDR-H1	CDR-H2	CDR-H3	group
ND / -0.72 / ND / ND / ND / ND	GFTLNSYGIS	VIYSDGLRVSYADSVK	GHAAGTFDS	Ctrl
0.42 / 0.25 / 0.23 / -0.08 / 0.52 / 0.61	GFDLNSYGIS	VIYSDGRRTAYGDSVK	GRAAGTFDT	GP_Gibbs
0.28 / 0.04 / -0.34 / 0.28 / 0.55 / 0.14	GFDLEDYGIS	VIYADGMRTAYSDSVK	GENAGTFDI	En_Gen
-0.46 / -0.66 / -0.91 / -0.67 / -0.70 / -0.74	GFDLDEYGIS	VIYADGQRTFYSDSVK	GETAGTFDV	En_HC
0.68 / 1.06 / 0.83 / 0.51 / 0.68 / 0.65	GFSLNSYGIS	VIYSDGRRTFYADHVK	GQAAGTFDS	GPLM_Gen
ND / ND / ND / ND / ND / ND	GFTLESYGIS	VIYADGRRTFYGDRVK	GQAAGTFDV	GP_Gibbs
-0.40 / -0.86 / -1.07 / -1.11 / -0.92 / -0.90	GFDLNEYGIS	VIYADGVRTAYADSVK	GTVAGTFDI	En_Gen
ND / ND / ND / ND / ND / ND	GFDIMEYGVS	VIYADGVRTAYSQDVK	GENLDSYVD	En_Gibbs
ND / 0.51 / -0.41 / -0.25 / 0.14 / 0.25	GFSLNTYGIS	VIYSDGRRTFYGDSVK	GRQAGTFDS	GPLM_Gen
1.71 / ND / ND / ND / ND / ND	GFDIEEYGIS	VIYADGIRQAYKDKFK	GWNDGTFSV	En_Gibbs
2.07 / 2.81 / ND / 1.30 / 2.20 / 1.94	GFELNSYGIS	VIYSDGRRTFYDDSVK	GQAAGTFDD	GP_HC
-0.19 / -0.17 / -0.36 / -0.67 / -0.43 / -0.24	GFDLNEYGIS	VIYADGQRTFYADSVK	GENAGTFDL	En_Gen
ND / ND / ND / ND / ND / ND	GFTLNSYGIS	VIYSDGRRTFYGDSVK	GKGAGTFDS	Ctrl
ND / ND / ND / ND / ND / ND	GFTLNSQGIS	VIYSDGRRTAYGDSVK	GRAAATFDS	Ctrl
ND / ND / ND / ND / ND / ND	GFDLDEYGIS	VIYADGMRTAYTDKVK	GRETDTNVV	En_Gibbs
ND / ND / ND / ND / ND / ND	MFSLNSYGIS	VIYADGRRTFYGDSVK	GQAAGTFDS	GP_Gibbs
0.85 / 0.48 / 0.08 / 0.19 / -0.28 / -0.11	GFDLNSYGIS	VIYSDGRRTFYDDSVK	GQVAGTFDS	GP_HC
-0.61 / -0.72 / -0.03 / -0.59 / -0.56 / -0.52	GFDLEDYGIS	VIYADGRRTAYIDSVK	GEAAGTFDA	En_HC
-0.21 / -0.44 / -0.60 / -0.09 / -0.39 / -0.35	GFDLNEYGIS	VIYADGVRTYYADSVK	GENAGTFDV	En_Gen
0.38 / 0.78 / 0.32 / 0.62 / 0.48 / 0.48	GFTLNEYGIS	VIYSDGRRTFYSDSVK	GRAAGTFDQ	GP_HC
-0.04 / -0.06 / -0.61 / 0.15 / -0.23 / -0.02	GFQLDEYGIS	VIYADGRRTFYQDSVK	GEVAGTFDS	En_HC
-0.54 / -0.27 / -0.86 / -0.64 / -0.76 / -0.38	GFDLNEYGIS	VIYADGMRTAYTDSVK	GNEAGTFDV	En_Gen
0.41 / ND / ND / ND / ND / ND	GFTLNDYGIS	VIYSDGRRMVYIDSVK	GRAAGTFDS	GP_HC
ND / ND / ND / ND / ND / ND	GFDLQEYGIS	VIYADGQRVNAVSQVK	GEQAGTFKL	En_Gibbs
-0.61 / -0.41 / -0.62 / -0.66 / -0.65 / -0.48	GFDLNEYGIS	VIYADGMRTAYADSVK	GHVAGTFDV	En_Gen

The last 4 entries again:

{"CDR-H1": "GFDLNEYGIS", "CDR-H2": "VIYADGMRTAYTDSVK", "CDR-H3": "GNEAGTFDV", "group": "En_Gen", "log10 Kd (nM) by replicate": "-0.54 / -0.27 / -0.86 / -0.64 / -0.76 / -0.38"}
{"CDR-H1": "GFTLNDYGIS", "CDR-H2": "VIYSDGRRMVYIDSVK", "CDR-H3": "GRAAGTFDS", "group": "GP_HC", "log10 Kd (nM) by replicate": "0.41 / ND / ND / ND / ND / ND"}
{"CDR-H1": "GFDLQEYGIS", "CDR-H2": "VIYADGQRVNAVSQVK", "CDR-H3": "GEQAGTFKL", "group": "En_Gibbs", "log10 Kd (nM) by replicate": "ND / ND / ND / ND / ND / ND"}
{"CDR-H1": "GFDLNEYGIS", "CDR-H2": "VIYADGMRTAYADSVK", "CDR-H3": "GHVAGTFDV", "group": "En_Gen", "log10 Kd (nM) by replicate": "-0.61 / -0.41 / -0.62 / -0.66 / -0.65 / -0.48"}

Three control strains display no target. For all heavy chain designs, 1% of the pairings with them gave a signal, with a median of 2.08 and one signal in twenty below 0.84, so weak values seen in few replicates may be background.
The parent sequence was in this pool as ten entries: three were never detected, three once, and four in most replicates, with averages from 0.34 to 2.37.
A sequence measured in both rounds can read differently, since the two assays cover different ranges.